Test results: PMC9570967 (Molecules, 2022)

The chains behind the UniProt entries cited, without tags or fusion partners.
UniProt P35372, whole entry, looked up: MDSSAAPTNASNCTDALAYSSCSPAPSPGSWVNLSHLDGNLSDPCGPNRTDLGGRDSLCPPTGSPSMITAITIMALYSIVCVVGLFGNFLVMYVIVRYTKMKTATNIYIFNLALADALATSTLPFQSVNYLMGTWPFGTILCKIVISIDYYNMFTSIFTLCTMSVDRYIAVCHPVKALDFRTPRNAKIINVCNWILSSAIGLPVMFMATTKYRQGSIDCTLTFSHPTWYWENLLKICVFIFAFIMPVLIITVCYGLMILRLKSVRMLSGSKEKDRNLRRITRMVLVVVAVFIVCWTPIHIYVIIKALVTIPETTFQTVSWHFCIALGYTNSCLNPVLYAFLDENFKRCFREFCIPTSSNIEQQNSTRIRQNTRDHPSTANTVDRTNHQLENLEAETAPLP

Target: human μ-opioid receptor (OPRM1) (Homo sapiens, UniProt P35372)
Test: Forskolin-induced cAMP accumulation assay, MOR antagonist mode
Conditions: versus EC90 of fentanyl; for IC50: read-out: MOR Antagonist IC50 ± SEM; for MOR Antagonist %Imax ± SEM: normalized to naltrexone

Structure (SMILES)	IC50 [nM]	MOR Antagonist IC50 ± SEM	MOR Antagonist %Imax ± SEM [%]
C=C[C@H]1[C@@H]2CCC[C@@]1(c1cccc(O)c1)CCN2CCc1ccccc1 [Compound 15, 3-((1S,5R,9R)-2-Phenethyl-9-vinyl-2-azabicyclo [3.3.1]nonan-5-yl)phenol]	3.58	more potent than naltrexone	130.8 ± 4.5
CC/C=C\[C@H]1[C@@H]2CCC[C@@]1(c1cccc(O)c1)CCN2CCc1ccccc1 [Compound 27, 3-((1S,5R,9R)-9-((Z)-But-1-en-1-yl)-2-phenethyl-2-azabicyclo [3.3.1]nonan-5-yl)phenol]	2.37	more potent than naltrexone	167.8 ± 10.6
CC/C=C\[C@@H]1[C@@H]2CCC[C@@]1(c1cccc(O)c1)CCN2CCc1ccccc1 [Compound 26, 3-((1S,5R,9S)-9-((Z)-But-1-en-1-yl)-2-phenethyl-2-azabicyclo [3.3.1]nonan-5-yl)phenol]	20	–	129.4 ± 3.4
C=C[C@@H]1[C@H]2CCC[C@]1(c1cccc(O)c1)CCN2CCc1ccccc1 [Compound 9, 3-((1R,5S,9S)-2-Phenethyl-9-vinyl-2-azabicyclo [3.3.1]nonan-5-yl)phenol]	45.6	–	18.8 ± 3.8
C/C=C\[C@H]1[C@@H]2CCC[C@@]1(c1cccc(O)c1)CCN2CCc1ccccc1 [Compound 20, 3-((1S,5R,9R)-2-Phenethyl-9-((Z)-prop-1-en-1-yl)-2-azabicyclo [3.3.1]nonan-5-yl)phenol]	2.34	more potent than naltrexone	157.1 ± 4.0
C=C[C@@H]1[C@@H]2CCC[C@@]1(c1cccc(O)c1)CCN2CCc1ccccc1 [Compound 14, 3-((1S,5R,9S)-2-Phenethyl-9-vinyl-2-azabicyclo [3.3.1]nonan-5-yl)phenol]	50.6	–	70.6 ± 8.0
C/C=C\[C@@H]1[C@@H]2CCC[C@@]1(c1cccc(O)c1)CCN2CCc1ccccc1 [Compound 21, 3-((1S,5R,9S)-2-Phenethyl-9-((Z)-prop-1-en-1-yl)-2-azabicyclo [3.3.1]nonan-5-yl)phenol]	45.6	–	39.8 ± 3.9
C=C[C@H]1[C@@H]2CCC[C@@]1(c1cccc(OC)c1)CCN2CCc1ccccc1 [Compound 13, (1S,5R,9R)-5-(3-Methoxyphenyl)-2-phenethyl-9-vinyl-2-azabicyclo [3.3.1]nonane]	2720	–	128.5 ± 16.6
